In ChEMBL document CHEMBL1938324, “Development of a more highly selective M(1) antagonist from the continued optimization of the MLPCN Probe ML012” (Bioorg Med Chem Lett, 2012):

Key:
Format in all cases: cell-based
CHO [1] = test: Selectivity ratio of IC50 for human muscarinic M5 receptor expressed in CHO cells to IC50 for rat muscarinic M1 receptor expressed in CHO cells
CHO [2] = test: Selectivity ratio of IC50 for human muscarinic M2 receptor expressed in CHO cells to IC50 for rat muscarinic M1 receptor expressed in CHO cells
CHO [3] = test: Selectivity ratio of IC50 for human muscarinic M3 receptor expressed in CHO cells to IC50 for rat muscarinic M1 receptor expressed in CHO cells
CHO [4] = test: Selectivity ratio of IC50 for rat muscarinic M4 receptor expressed in CHO cells co-transfected with Gqi5 to IC50 for rat muscarinic M1 receptor expressed in CHO cells

Measured: Ratio IC50

O=C(CCNS(=O)(=O)c1cccc2nsnc12)N1CCN(c2ccncc2)CC1
45: CHO [1] | CHO [2] | CHO [3] | CHO [4]
